Test results reported in PubChem BioAssay AID720709 (National Center for Advancing Translational Sciences (NCATS), 2013).
The entries are a selection whose mix differs from that of the whole data set. Inconclusive results are not listed. The source made the active and inactive calls. Calls follow the shape of the dose curve; as a rule, active = well fitted inhibition curve with a large enough effect; inconclusive = small, poorly fitted or top-dose-only effect; inactive = no such curve, though single readings can be large or run the other way.

Sequences of proteins named here, by UniProt entry; tags and fusion partners are left off.
UniProt O95398, whole entry: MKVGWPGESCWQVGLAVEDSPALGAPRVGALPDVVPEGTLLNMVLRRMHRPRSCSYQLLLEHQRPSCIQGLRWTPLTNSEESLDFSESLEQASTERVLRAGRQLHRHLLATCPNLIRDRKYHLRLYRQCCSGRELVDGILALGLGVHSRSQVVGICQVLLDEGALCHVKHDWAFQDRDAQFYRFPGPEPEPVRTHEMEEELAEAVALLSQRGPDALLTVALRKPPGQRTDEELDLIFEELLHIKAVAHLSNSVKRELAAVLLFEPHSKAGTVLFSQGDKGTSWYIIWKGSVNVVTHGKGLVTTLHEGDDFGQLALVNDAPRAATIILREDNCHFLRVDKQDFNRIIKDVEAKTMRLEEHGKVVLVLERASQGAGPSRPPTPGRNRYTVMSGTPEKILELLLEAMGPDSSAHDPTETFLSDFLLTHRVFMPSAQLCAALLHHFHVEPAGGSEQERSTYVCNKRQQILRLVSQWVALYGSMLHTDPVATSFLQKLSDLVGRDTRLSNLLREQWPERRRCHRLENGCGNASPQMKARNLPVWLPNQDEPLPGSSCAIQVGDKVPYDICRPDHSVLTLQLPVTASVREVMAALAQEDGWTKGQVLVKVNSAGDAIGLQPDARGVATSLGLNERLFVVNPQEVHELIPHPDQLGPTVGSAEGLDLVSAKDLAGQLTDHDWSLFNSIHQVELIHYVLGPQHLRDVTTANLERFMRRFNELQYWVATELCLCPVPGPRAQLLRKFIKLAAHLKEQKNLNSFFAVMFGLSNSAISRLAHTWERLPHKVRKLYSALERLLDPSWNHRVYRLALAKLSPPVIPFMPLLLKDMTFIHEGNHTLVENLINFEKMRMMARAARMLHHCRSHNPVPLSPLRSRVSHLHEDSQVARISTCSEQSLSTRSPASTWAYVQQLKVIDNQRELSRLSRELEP

Target: Rap guanine nucleotide exchange factor 3 (Homo sapiens) (UniProt O95398)
Assay: qHTS for Antagonist of cAMP-regulated guanine nucleotide exchange factor 3 (EPAC1): primary screen;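 also: plate controls were vehicle for no effect and positive control for full effect; nearly all actives have a fitted effect of over 50% in size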
Conditions: EPAC1 GEF assay, Rap1b-BODIPY-GDP exchange fluorescence; at 115 µM (top of the series)

| Compound | activity change, negative = inhibition |
| --- | --- |
| CCCCn1nnnc1C(c1cc2ccccc2o1)N1CCC(n2c(=O)[nH]c3ccccc32)CC1 (stereo not given) | inactive: 0.234% |
| O=P1(N(CCCl)CCCl)SCCCS1 | inactive: -7.02% |
| CCCCOc1ccc(C(=O)NCC2(N3CCOCC3)CCCCC2)cc1 | inactive: -16.1% |
| COc1ccc(NC2CCN(CCc3ccccc3)CC2)c(OC)c1 | inactive: -0.291% |
| CCOC(=O)N1CCC(Nc2ccc(F)cc2)CC1 | inactive: -2.09% |
| CC(C)(C)n1nnnc1C(c1ccccc1)N1CCC(n2c(=O)[nH]c3ccccc32)CC1 (stereo not given) | inactive: 0.141% |
| O=C1CCN(Cc2ccccc2)CC1 | inactive: 3.19% |
| CCOc1ccc(C)cc1CN(CCCl)CCCl | inactive: -26.5% |
| O=C(OC1CN2CCC1CC2)C1c2ccccc2Oc2ccccc21 (stereo not given) | inactive: -6.33% |
| O=c1[nH]c2ccccc2n1C1CCN(C(c2cc3ccccc3o2)c2nnnn2C2CCCCC2)CC1 (stereo not given) | inactive: 6.76% |
| O=C(NCC1(N2CCCCC2)CCCCC1)c1ccc(Cl)s1 | inactive: 12.9% |
| N#CC1(Nc2ccccc2)CCN(Cc2ccccc2)CC1 | inactive: -8.15% |
| O=C1C(O)=C([N+](=O)[O-])C(=O)C(O)=C1[N+](=O)[O-] | inactive: -3.28% |
| COc1ccc(Cl)cc1C(=O)NCC1(N2CCOCC2)CCCCC1 | inactive: -8.01% |
| CCOC(=O)N1CCC(Nc2ccc(OC)cc2)CC1 | inactive: -1.31% |
| CCCCn1nnnc1C(c1ccc(OC)cc1)N1CCC(n2c(=O)[nH]c3ccccc32)CC1 (stereo not given) | inactive: -16.3% |
| O=c1[nH]c2ccccc2n1C1CCN(C(c2ccccc2OC(F)(F)F)c2nnnn2C2CCCCC2)CC1 (stereo not given) | inactive: -2.74% |
| O=C(NCC1(N2CCCCC2)CCCCC1)c1ccc(Cl)nc1 | inactive: -7.39% |
| Cc1cc(C)cc(N(C(=O)c2ccccc2)C2CCN(C(=O)OC(C)(C)C)CC2)c1 | inactive: -21.4% |
| O=C(NCC1(N2CCOCC2)CCCCC1)c1cc2ccccc2o1 | inactive: 6.48% |
| CSc1ccccc1C(=O)NCC1(N2CCCCC2)CCCCC1 | inactive: 0.0909% |
| Cc1cccc(NC2(C#N)CCN(Cc3ccccc3)CC2)c1 | inactive: -3.43% |
| COc1ccc(C(=O)NCC2(N3CCCCC3)CCCCC2)cc1 | inactive: 4.04% |
| CCC(c1nnnn1C1CCCC1)N1CCC(n2c(=O)[nH]c3ccccc32)CC1 (stereo not given) | inactive: -6.8% |
| CC(C)(C)OC(=O)N1CCC(N(C(=O)c2ccccc2)c2ccc(F)cc2)CC1 | inactive: 8.95% |
| COc1ccc(C(=O)NCC2(N3CCCCC3)CCCCC2)c(OC)c1OC | inactive: -15.1% |
| O=C(NCC1(N2CCCCC2)CCCCC1)c1ccc(=O)[nH]c1 | inactive: 22.2% |
| CCCCn1nnnc1C(c1cccs1)N1CCC(n2c(=O)[nH]c3ccccc32)CC1 (stereo not given) | inactive: -24.1% |
| O=C(NCC1(N2CCCCC2)CCCCC1)c1cccs1 | inactive: -7.72% |
| CCCCn1nnnc1C(CC)N1CCC(n2c(=O)[nH]c3ccccc32)CC1 (stereo not given) | inactive: 6.64% |
